# Biological target: Wild-type RET kinase (Homo sapiens, UniProt P07949)
# Amino acid sequences for entries named in this document (tags omitted). Residues count along the entry.
# UniProt P07949, 29-1114: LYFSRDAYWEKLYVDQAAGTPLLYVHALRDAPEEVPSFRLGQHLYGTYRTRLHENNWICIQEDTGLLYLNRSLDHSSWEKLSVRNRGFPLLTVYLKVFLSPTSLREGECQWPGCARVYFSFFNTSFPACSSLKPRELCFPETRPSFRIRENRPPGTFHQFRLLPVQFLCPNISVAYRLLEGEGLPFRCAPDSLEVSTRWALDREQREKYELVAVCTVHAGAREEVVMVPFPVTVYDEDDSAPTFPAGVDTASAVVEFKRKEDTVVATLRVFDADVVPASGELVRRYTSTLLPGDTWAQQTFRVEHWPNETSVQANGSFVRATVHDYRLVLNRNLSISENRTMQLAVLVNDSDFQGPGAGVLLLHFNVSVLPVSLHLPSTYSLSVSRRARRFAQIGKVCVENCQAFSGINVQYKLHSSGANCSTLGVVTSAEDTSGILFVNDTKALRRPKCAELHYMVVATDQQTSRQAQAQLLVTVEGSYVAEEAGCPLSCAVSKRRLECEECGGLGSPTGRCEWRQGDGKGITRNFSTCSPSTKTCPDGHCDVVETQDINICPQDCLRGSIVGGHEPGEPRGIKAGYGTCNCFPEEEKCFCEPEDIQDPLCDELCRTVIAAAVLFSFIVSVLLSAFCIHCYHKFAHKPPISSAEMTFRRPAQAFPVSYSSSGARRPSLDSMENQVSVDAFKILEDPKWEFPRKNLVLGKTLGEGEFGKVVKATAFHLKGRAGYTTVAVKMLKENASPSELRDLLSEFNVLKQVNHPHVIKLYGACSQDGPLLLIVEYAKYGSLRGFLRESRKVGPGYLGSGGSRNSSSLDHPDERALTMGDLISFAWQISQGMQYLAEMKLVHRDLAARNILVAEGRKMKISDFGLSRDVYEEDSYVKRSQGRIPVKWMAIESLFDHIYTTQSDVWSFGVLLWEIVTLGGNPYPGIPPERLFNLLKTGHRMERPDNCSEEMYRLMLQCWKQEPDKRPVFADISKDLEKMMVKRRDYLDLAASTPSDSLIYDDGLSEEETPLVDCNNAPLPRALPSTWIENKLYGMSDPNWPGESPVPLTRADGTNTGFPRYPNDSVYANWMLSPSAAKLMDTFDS
# Test: HTRF method for testing the inhibitory activity of compounds against RET
# Format: biochemical
substance,measurement,value
"4-(6-(4-(6-methoxypyridin-3-yl)piperazin-1-yl)pyridin-3-yl)-N,N-dimethyl-6-(1-methyl-1H-pyrazol-4-yl)H-pyrazolo[1,5-a]pyridine-3-carboxamide [Compound 2]",IC50,> 10 µM
